In this assay the target is T1, 35S-methionine-labelled MPK4 (Arabidopsis thaliana, UniProt Q39024 1-376, limits assumed, 35S-methionine-labelled).
T1 construct: also called 35S-MPK4; in vitro synthesized MPK4
T1 sequence (looked up): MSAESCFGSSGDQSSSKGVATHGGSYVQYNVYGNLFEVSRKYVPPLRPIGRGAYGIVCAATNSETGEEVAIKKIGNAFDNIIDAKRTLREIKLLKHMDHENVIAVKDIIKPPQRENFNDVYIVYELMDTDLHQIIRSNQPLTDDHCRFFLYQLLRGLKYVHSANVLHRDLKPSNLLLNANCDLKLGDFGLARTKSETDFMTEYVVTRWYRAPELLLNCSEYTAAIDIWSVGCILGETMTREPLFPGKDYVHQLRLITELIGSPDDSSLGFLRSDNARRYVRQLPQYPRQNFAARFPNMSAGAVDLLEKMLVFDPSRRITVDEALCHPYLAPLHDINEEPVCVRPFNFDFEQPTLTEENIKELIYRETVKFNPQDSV
In words: GST pull-down, SDS-PAGE, phosphoimager.

B1: GST protein alone (other, UniProt P08515 1-218, looked up)
chain: MSPILGYWKIKGLVQPTRLLLEYLEEKYEEHLYERDEGDKWRNKKFELGLEFPNLPYYIDGDVKLTQSMAIIRYIADKHNMLGGCPKERAEISMLEGAVLDIRYGVSRIAYSKDFETLKVDFLSKLPEMLKMFEDRLCHKTYLNGDHVTHPDFMLYDALDVVLYMDPMCLDAFPKLVCFKKRIEAIPQIDKYLKSSKYIAWPLQGWQATFGGGDHPPK
notes: Negative control on glutathione-Sepharose beads; also called Glutathione-S-transferase
Take B1: the binding result was “no binding”.

For the origin of these results see patent publication US20070271623A1 (UNIVERSITY OF COPENHAGEN, published 2007).
